Values quoted from earlier work as cited in patent US8658604B2, “Template-fixed beta-hairpin peptidomimetics with protease inhibitory activity” (Polyphor Ltd, priority 2005, dated 2014).

System: elastase
Settings: cited from earlier work

## CC[C@H](C)[C@@H]1NC(=O)[C@@H]2CCCN2C(=O)[C@@H]2CCCN2C(=O)[C@H]([C@@H](C)CC)NC(=O)[C@H](CO)NC(=O)[C@H](CCCCN)NC(=O)[C@H]([C@@H](C)O)NC(=O)[C@@H]2CSSC[C@H](NC1=O)C(=O)N[C@@H](Cc1ccccc1)C(=O)N1CCC[C@H]1C(=O)N[C@@H](CC(=O)O)C(=O)NCC(=O)N[C@@H](CCCNC(=N)N)C(=O)N2
  Ki: 105 µM
